# Ab-14 light chain CDR variants: yeast mating affinities

Source: Li et al. 2023 (doi:10.1038/s41467-023-39022-2), MIT Lincoln Laboratory and A-Alpha Bio; data file from the FLAb repository.

Binding partner: SARS-CoV-2 spike HR2 peptide, sequence PDVDLGDISGINAS.

The variants keep the heavy chain, the linker and the frameworks of Ab-14 (scFv order VH, the linker GGGGSGGGGSGGGGS, VL).
VH: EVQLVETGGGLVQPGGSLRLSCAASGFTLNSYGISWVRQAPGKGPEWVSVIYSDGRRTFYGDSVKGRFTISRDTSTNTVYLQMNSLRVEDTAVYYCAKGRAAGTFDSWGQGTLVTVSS
VL: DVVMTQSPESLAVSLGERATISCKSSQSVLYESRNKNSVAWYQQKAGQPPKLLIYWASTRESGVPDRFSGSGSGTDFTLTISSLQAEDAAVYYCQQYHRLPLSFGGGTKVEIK

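Phage display of a naive human antibody library on the peptide gave the parent. This is the validation round: designs drawn from the data on random variants, tested in the same kind of assay. Their group label is 14L_GP_Gibbs (GP: Gaussian process model; Gibbs: Gibbs sampling; a sequence that several methods proposed may carry one label only). In AlphaSeq, yeast of one mating type display the scFv and yeast of the other type display the target. Binding brings cells together so that they mate, and sequencing counts the barcode pairs among the diploids. Each replicate has its own calibration line, from reference interactions of the BCL2 family. Each pool was mated in six replicate cultures.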

The parent's light chain CDRs are KSSQSVLYESRNKNSVA, WASTRES, QQYHRLPLS; each variant's own CDRs replace them letter for letter.
Affinities are written as log10 Kd with Kd in nM; a lower number is a better binder.
The mean shown is taken over the replicates in which the pair was detected.
Of ten entries with the parent sequence, four were seen in most replicates (averages 0.34 to 2.37), three in one and three in none, so single entries are noisy.
Background: pairings of all light chain designs with three empty control strains gave a value in 4% of cases (median 2.64, 5th percentile 1.59). Values in that range, when seen in few replicates, are hard to tell from nonspecific mating. Also given: how often the same scFv was detected with the empty control strains, with their mean in brackets.
The authors averaged sequences with at least three values out of six and counted those with two or fewer as poor binders.
Values of this round are not directly comparable with the first-round values of the same sequences.

CDR-L1,CDR-L2,CDR-L3,"replicates, log10 nM","mean, log10 nM",signal with controls
KVSQQGLYGDRNANSVA,NASTRED,QQYHRLPLY,0.67 0.63 0.40 0.39 0.34 0.41,0.47,1 of 18 (2.22)
KMEQSDWLESRNVNSVA,QASTRES,QQYHRLPLS,0.02 0.03 -0.39 -0.36 -0.21 0.11,-0.13,0 of 18
KIQQFYEGESRNKNSVA,SASTRES,QQYHRLPLS,-0.14 -0.27 -0.12 -0.22 -0.46 0.14,-0.18,0 of 18
KLYMGVDYGDRNKNQVA,HASQRES,QQYHRLPLS,0.77 0.57 0.78 0.51 0.75 1.08,0.74,1 of 18 (2.90)
VLQQSVLPESRNKNSVA,EASLRLS,QQYHRLPLS,0.32 0.61 0.51 0.42 0.35 0.41,0.44,1 of 18 (2.28)
KLHQSVGYESRNKNSVA,GASQRES,QQYHRLPLS,0.06 -0.12 -0.04 -0.19 -0.17 0.07,-0.06,1 of 18 (2.42)
KLSMSVWYEARMKNSVA,EASTRES,QQYHRLPLS,0.41 0.19 0.18 0.30 0.38 0.33,0.30,1 of 18 (2.10)
KHEEGVLYESRNKNSVA,EGSTRES,QQYHRLPLS,0.15 0.23 0.12 0.10 0.25 0.42,0.21,0 of 18
KLSQSWPGEERNKNSVA,SASTREQ,QQYHRLPLS,0.98 0.26 -0.15 0.27 -0.21 0.22,0.23,0 of 18
IISQSMLYESRNWNSVA,NASTRWS,QQYHRLPLS,0.33 0.82 0.75 0.99 0.80 0.55,0.71,0 of 18
KLSTSWLYGKRNKNSVA,QASQRES,QQYHRLPLS,1.38 0.63 0.70 0.57 0.27 0.99,0.76,1 of 18 (2.74)
KLQMSEEYGSRNKNSVA,SASQRES,QQYHRLPLS,0.18 0.32 0.02 0.07 0.16 0.28,0.17,1 of 18 (2.74)
KHSISVMREDRNKNSVA,DASTRES,QQYHRLPLS,0.39 0.31 0.12 -0.17 0.42 -0.08,0.17,0 of 18
KVSPSVLGEMRNDNSVA,NASTRRS,QQYHRLPLS,0.71 1.01 0.83 0.92 0.99 0.80,0.88,1 of 18 (3.24)
KAQQSNPYESRNKWSVA,NASTRES,QQYHRLPLS,0.34 -0.02 0.07 -0.02 0.21 -0.01,0.10,0 of 18
FLSQSQLYESRNKNSVA,NGSTRES,QDYHRLPLS,1.22 0.49 0.58 0.57 1.16 1.05,0.84,0 of 18
KLQQQSEYGSRNKNSVA,QASTREQ,QQYHRLPLS,-0.01 -0.04 -0.18 -0.14 -0.09 0.04,-0.07,0 of 18
KVSQMVDYESRNKNNVA,EASTRMS,QQYHRLPLS,-0.24 -0.40 -0.37 -0.32 -0.42 -0.21,-0.33,3 of 18 (3.48)
KLSQSVDYESRNKNSVA,NAQTRMS,QQYHRLPLS,0.20 -0.21 0.01 -0.22 -0.18 0.25,-0.02,0 of 18
KVMQSYLGEMRNCNSVA,NASTRES,QQYHRLPLS,0.86 0.37 1.10 0.83 0.46 0.68,0.72,2 of 18 (2.11)
KVWFSELGLERNKMSVA,QASTRES,QQYHRLPLS,0.01 0.24 0.19 0.40 0.05 0.49,0.23,0 of 18
KVSNQADYEDRMKNSVA,DASTRES,QQYHRLPLS,0.17 0.63 0.25 0.16 0.38 0.40,0.33,0 of 18
LLSQQNLYESRNKNSVA,NASQRLS,QQYHRLPLS,0.13 -0.03 -0.05 -0.14 0.13 0.25,0.05,1 of 18 (2.41)
KLSASQLYWSRNKNSVA,NASTRET,QQYHRLPLS,0.19 0.11 0.05 -0.02 -0.04 0.22,0.08,1 of 18 (3.06)
KMSQSGMMESRNQNQVA,EASTRLS,QQYHRLPLS,0.24 0.44 -0.03 0.36 0.32 0.27,0.27,1 of 18 (1.55)
KIQQEGNYESRNKNSVA,SASTRCP,QQYHRLPLS,0.03 -0.08 -0.09 -0.10 0.07 0.03,-0.02,0 of 18
KLSQSVLYEPTNSQSVA,DASTRYS,QQYHRLPLS,0.04 0.05 -0.12 -0.13 -0.16 0.03,-0.05,1 of 18 (3.82)
KISQAYLYEDRNKNSVA,NANTRES,QQYHRLPLS,-0.12 -0.45 -0.32 -0.20 -0.56 -0.26,-0.32,1 of 18 (2.19)
KLMWSDQYWSRNKNSVA,GASERES,QQYHRLPLS,1.69 0.75 1.48 0.91 0.78 0.63,1.04,0 of 18
KLQWSVLYQSRNKNSVA,QASTRMM,QQYHRLPLS,0.54 0.56 0.37 0.14 0.32 0.52,0.41,0 of 18
KAQQSCLYESRNQNSVA,SASQRLS,QQYHRLPLS,0.58 0.34 0.13 0.12 0.31 0.23,0.29,1 of 18 (3.71)
HFSQSVPYESRNFNSVA,NASLRFS,QQYHRLPLS,1.21 1.00 0.98 1.35 0.69 1.53,1.13,0 of 18
KYSQSQLYEDRMVNSVA,NASQREE,QQYHRLPLS,0.98 0.96 0.69 1.01 0.78 1.08,0.92,3 of 18 (3.43)
KLSQSQLYESRNKNSVA,NGSTRES,QDYHRLPLS,0.02 -0.24 -0.21 -0.34 -0.23 -0.21,-0.20,1 of 18 (3.26)
KLSQSKEYESRQKNSVA,NASTREV,QQYHRLPLS,0.21 -0.15 -0.19 0.23 0.35 0.26,0.12,0 of 18
KWEYSVDGESRNKNAVA,QASQREQ,QQYHRLPLS,0.35 0.06 0.25 0.01 0.18 0.07,0.15,1 of 18 (4.14)
KLQQSNLYESRNDNSVA,HASMRES,QQYHRLPLF,0.25 -0.09 0.02 -0.26 0.01 -0.05,-0.02,2 of 18 (3.64)
KLMQSVMYWMRNKNSVA,NASTRES,QQYHRLPLS,0.31 0.42 0.00 0.42 0.31 0.46,0.32,1 of 18 (3.03)
KVSQSMLIWSRNSNSVA,NASTREH,QQYHRLPLS,0.50 0.30 0.41 0.53 0.12 0.92,0.46,1 of 18 (2.43)

The opening 6 entries, copied out:

CDR-L1,CDR-L2,CDR-L3,"replicates, log10 nM","mean, log10 nM",signal with controls
KVSQQGLYGDRNANSVA,NASTRED,QQYHRLPLY,0.67 0.63 0.40 0.39 0.34 0.41,0.47,1 of 18 (2.22)
KMEQSDWLESRNVNSVA,QASTRES,QQYHRLPLS,0.02 0.03 -0.39 -0.36 -0.21 0.11,-0.13,0 of 18
KIQQFYEGESRNKNSVA,SASTRES,QQYHRLPLS,-0.14 -0.27 -0.12 -0.22 -0.46 0.14,-0.18,0 of 18
KLYMGVDYGDRNKNQVA,HASQRES,QQYHRLPLS,0.77 0.57 0.78 0.51 0.75 1.08,0.74,1 of 18 (2.90)
VLQQSVLPESRNKNSVA,EASLRLS,QQYHRLPLS,0.32 0.61 0.51 0.42 0.35 0.41,0.44,1 of 18 (2.28)
KLHQSVGYESRNKNSVA,GASQRES,QQYHRLPLS,0.06 -0.12 -0.04 -0.19 -0.17 0.07,-0.06,1 of 18 (2.42)